Assay results as given in ChEMBL document CHEMBL6109139, “Rational Design of the First Dual Agonist at Trace Amine-Associated Receptor 1 and 5-HT2C Receptors Based on Binding Pocket Similarity for the Treatment of Schizophrenia and Alzheimer's Disease-Related Psychosis” (J Med Chem, 2025).

Amino acid sequences for entries named in this document (tags omitted). A change or cut given only in a name is not applied to a line headed by its entry.
UniProt P34969, whole entry: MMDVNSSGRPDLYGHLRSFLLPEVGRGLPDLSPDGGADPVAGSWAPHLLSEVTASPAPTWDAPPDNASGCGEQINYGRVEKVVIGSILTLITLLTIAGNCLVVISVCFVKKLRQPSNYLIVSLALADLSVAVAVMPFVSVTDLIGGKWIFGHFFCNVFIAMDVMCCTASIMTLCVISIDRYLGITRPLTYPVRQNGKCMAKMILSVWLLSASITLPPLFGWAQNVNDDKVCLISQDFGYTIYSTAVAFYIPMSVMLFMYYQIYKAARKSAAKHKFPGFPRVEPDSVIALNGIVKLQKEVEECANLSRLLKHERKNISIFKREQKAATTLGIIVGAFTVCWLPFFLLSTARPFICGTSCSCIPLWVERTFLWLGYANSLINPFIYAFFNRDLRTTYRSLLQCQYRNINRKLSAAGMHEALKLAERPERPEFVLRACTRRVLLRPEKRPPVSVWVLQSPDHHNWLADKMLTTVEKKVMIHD
UniProt P28335: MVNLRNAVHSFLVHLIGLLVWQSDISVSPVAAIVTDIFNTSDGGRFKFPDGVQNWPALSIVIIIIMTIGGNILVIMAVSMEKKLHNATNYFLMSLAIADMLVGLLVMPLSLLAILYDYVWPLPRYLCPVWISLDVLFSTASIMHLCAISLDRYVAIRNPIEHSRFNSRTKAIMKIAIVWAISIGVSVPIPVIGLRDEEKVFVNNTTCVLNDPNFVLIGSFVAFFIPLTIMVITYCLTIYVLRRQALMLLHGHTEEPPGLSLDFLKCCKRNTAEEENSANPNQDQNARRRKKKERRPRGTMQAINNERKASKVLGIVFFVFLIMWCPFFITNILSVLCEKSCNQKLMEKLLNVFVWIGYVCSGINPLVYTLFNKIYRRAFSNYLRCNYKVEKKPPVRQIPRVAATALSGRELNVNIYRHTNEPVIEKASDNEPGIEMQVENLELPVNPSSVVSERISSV
UniProt P11712, whole entry: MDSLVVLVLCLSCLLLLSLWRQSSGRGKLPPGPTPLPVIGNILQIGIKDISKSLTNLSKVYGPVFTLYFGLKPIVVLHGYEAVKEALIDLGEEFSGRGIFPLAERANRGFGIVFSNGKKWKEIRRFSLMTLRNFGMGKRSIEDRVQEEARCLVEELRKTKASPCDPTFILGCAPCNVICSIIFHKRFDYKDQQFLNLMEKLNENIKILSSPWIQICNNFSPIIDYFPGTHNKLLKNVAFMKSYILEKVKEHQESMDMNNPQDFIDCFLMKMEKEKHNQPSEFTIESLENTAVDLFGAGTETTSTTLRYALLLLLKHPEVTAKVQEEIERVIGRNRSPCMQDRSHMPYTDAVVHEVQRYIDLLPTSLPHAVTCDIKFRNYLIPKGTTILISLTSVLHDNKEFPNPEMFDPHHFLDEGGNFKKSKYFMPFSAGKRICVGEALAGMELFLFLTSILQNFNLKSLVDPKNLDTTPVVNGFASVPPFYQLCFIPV
UniProt P10632, whole entry: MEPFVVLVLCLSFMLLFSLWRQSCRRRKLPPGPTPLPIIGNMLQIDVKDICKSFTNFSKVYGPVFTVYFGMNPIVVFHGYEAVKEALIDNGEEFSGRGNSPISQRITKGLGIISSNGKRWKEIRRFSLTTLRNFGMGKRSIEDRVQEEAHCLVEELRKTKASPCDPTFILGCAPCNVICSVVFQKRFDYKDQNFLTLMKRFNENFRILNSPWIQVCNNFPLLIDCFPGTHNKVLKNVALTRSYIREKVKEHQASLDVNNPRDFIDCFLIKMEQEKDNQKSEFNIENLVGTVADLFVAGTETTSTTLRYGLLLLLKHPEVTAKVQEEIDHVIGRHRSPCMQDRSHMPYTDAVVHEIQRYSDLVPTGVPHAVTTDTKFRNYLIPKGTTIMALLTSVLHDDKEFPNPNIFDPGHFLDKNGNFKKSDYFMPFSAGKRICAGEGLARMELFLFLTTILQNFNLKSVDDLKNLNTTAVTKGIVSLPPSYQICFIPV
UniProt P20813: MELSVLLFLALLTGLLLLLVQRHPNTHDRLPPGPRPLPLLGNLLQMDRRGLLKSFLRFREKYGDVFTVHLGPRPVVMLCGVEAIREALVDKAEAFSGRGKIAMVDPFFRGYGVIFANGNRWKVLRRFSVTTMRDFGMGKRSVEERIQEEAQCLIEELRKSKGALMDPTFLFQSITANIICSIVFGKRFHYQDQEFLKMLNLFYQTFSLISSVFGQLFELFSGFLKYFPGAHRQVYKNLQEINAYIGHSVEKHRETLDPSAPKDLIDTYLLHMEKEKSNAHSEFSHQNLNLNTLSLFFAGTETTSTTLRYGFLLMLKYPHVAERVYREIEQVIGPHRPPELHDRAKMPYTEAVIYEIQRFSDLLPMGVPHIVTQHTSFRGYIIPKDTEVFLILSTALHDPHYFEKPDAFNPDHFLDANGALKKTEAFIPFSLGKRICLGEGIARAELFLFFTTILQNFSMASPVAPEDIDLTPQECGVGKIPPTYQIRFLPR
UniProt P08684, whole entry: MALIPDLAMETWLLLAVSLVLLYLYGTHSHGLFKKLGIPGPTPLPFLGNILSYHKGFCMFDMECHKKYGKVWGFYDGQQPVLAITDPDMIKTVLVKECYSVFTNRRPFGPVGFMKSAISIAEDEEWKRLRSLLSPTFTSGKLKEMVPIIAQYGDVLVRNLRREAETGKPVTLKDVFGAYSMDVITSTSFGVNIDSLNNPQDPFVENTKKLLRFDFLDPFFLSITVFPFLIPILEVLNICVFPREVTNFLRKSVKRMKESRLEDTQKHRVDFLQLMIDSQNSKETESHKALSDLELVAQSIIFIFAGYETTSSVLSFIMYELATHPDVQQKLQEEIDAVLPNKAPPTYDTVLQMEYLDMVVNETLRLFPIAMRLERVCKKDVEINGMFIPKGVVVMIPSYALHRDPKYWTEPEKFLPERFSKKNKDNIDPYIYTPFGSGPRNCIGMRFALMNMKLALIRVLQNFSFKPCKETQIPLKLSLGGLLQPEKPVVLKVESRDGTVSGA
UniProt P08908, whole entry: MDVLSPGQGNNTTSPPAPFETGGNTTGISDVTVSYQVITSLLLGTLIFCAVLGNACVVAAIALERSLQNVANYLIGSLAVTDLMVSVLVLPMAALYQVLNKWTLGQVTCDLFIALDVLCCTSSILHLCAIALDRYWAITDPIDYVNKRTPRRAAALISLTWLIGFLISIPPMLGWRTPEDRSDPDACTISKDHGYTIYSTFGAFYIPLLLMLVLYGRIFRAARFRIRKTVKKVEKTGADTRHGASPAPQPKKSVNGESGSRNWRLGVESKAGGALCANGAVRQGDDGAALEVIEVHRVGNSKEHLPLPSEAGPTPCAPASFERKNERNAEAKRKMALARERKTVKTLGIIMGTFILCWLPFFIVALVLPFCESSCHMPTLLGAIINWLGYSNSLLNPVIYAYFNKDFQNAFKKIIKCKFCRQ
UniProt P05177, whole entry: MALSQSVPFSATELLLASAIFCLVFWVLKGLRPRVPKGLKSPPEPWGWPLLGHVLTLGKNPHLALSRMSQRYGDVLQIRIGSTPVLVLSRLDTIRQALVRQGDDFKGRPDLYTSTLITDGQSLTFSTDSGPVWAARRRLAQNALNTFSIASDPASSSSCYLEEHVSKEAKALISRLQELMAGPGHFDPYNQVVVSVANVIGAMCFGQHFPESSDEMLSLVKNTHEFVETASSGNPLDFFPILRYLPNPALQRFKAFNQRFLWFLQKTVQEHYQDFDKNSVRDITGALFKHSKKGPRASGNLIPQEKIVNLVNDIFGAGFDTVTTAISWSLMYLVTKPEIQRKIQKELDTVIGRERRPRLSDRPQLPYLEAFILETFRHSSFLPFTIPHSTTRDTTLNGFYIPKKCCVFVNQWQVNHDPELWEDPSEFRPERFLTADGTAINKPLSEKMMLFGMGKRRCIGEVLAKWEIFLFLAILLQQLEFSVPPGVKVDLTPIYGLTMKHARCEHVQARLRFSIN
UniProt P33261, whole entry: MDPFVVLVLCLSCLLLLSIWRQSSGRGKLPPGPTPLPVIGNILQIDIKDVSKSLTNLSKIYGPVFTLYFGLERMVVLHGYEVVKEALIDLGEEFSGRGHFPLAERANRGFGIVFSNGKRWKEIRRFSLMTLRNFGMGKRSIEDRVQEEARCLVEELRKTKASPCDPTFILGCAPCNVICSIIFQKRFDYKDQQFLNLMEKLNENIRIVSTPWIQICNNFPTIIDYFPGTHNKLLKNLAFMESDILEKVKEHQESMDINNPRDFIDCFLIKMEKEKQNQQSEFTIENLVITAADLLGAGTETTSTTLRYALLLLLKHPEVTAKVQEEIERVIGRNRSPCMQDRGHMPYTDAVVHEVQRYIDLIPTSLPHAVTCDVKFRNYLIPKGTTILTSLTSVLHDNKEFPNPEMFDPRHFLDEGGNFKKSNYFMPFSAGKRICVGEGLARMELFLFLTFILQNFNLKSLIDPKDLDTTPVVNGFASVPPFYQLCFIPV

How the values were obtained:
[1] = biological target: T1, Trace amine-associated receptor 1 (Homo sapiens) (UniProt Q96RJ0); experiment: Agonist activity at human TAAR1 extracted from CHO-K1 cell membrane coexpressing AGTRL1/Gi by measuring maximum efficacy at 0 to 100 uM by cAMP assay relative to control; assay type: functional, cell membranes; settings: filed as agonist, dose 0-100 µM
T1 sequence (whole entry): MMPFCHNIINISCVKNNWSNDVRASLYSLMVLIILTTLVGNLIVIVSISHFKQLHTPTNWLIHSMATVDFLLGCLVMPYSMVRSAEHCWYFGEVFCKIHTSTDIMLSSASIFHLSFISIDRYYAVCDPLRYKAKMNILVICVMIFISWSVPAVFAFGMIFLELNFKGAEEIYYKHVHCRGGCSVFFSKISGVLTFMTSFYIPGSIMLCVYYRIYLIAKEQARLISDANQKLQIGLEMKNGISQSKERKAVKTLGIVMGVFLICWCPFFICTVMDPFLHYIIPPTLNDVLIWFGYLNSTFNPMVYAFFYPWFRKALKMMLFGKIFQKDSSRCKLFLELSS

[2] = biological target: T2, Trace amine-associated receptor 1 (Homo sapiens, UniProt Q96RJ0); experiment: Agonist activity at human TAAR1 extracted from CHO-K1 cell membrane coexpressing AGTRL1/Gi by cAMP assay; assay type: functional, cell membranes
T2 sequence (Q96RJ0 whole entry): T1 sequence (whole entry)

[3] = AUClast in male mouse at 10 mg/kg, IG measured after 24 hrs; assay type: ADME, organism-based; settings: in vivo, po
[4] = biological target: T3, 5-hydroxytryptamine receptor 7 (Homo sapiens, UniProt P34969); experiment: Agonist activity at recombinant human 5-HT7 expressed in HEK293 cells by FLIPR calcium assay; assay type: functional, cell-based
[5] = biological target: T4, 5-hydroxytryptamine receptor 2C (Homo sapiens, UniProt P28335); experiment: Agonist activity at recombinant human 5-HT2CR expressed in HEK293 cells incubated for 2 hrs by FLIPR calcium assay; assay type: functional, cell-based
[6] = species: Mus musculus; experiment: Antipsychotic activity against MK-801 induced hyperlocomotion in male C57BL/6J mouse model assessed as effective dose; assay type: functional
[7] = Metabolic stability in rat liver microsomes assessed as intrinsic clearance at 1 uM incubated for 60 mins by LC-MS/MS analysis; assay type: ADME, Microsome; settings: read-out: CLH
[8] = Metabolic stability in human liver microsomes assessed as intrinsic clearance at 1 uM incubated for 60 mins by LC-MS/MS analysis; assay type: ADME, Microsome; settings: read-out: CLH
[9] = biological target: Cytochrome P450 2C9 (Homo sapiens, UniProt P11712); experiment: Inhibition of CYP2C9 in human liver microsomes in presence of NADPH by LC-MS/MS analysis; assay type: ADME, Microsome
[10] = biological target: Cytochrome P450 2C8 (Homo sapiens, UniProt P10632); experiment: Inhibition of CYP2C8 in human liver microsomes in presence of NADPH by LC-MS/MS analysis; assay type: ADME, Microsome
[11] = Metabolic stability in mouse liver microsomes assessed as intrinsic clearance at 1 uM incubated for 60 mins by LC-MS/MS analysis; assay type: ADME, Microsome; settings: read-out: CLH
[12] = biological target: Cytochrome P450 2B6 (Homo sapiens, UniProt P20813); experiment: Inhibition of CYP2B6 in human liver microsomes in presence of NADPH by LC-MS/MS analysis; assay type: ADME, Microsome
[13] = biological target: T4, 5-hydroxytryptamine receptor 2C; experiment: Agonist activity at recombinant human 5-HT2CR expressed in HEK293 cells incubated for 2 hrs by measuring maximum efficacy by FLIPR calcium assay relative to control; assay type: functional, cell-based
[14] = test system: Mus musculus; experiment: Antipsychotic activity against DOI-induced head-twitch response in mouse assessed as reduction in head-twitch response at 10 mg/kg, IG measured for 30 mins; assay type: functional, organism-based
[15] = biological target: Cytochrome P450 3A4 (Homo sapiens, UniProt P08684); experiment: Inhibition of CYP3A4 in human liver microsomes in presence of NADPH by LC-MS/MS analysis; assay type: ADME, Microsome
[16] = biological target: T3, 5-hydroxytryptamine receptor 7; experiment: Agonist activity at recombinant human 5-HT7 expressed in HEK293 cells by measuring maximum efficacy at 2 uM by FLIPR calcium assay relative to control; assay type: functional, cell-based; settings: filed as agonist
[17] = biological target: T5, 5-hydroxytryptamine receptor 1A (Homo sapiens, UniProt P08908); experiment: Agonist activity at human 5-HT1A expressed in CHO cells coexpressing Galpha15 by measuring maximum efficacy at 2 uM by FLIPR calcium assay relative to control; assay type: functional, cell-based
[18] = biological target: Cytochrome P450 1A2 (Homo sapiens, UniProt P05177); experiment: Inhibition of CYP1A2 in human liver microsomes in presence of NADPH by LC-MS/MS analysis; assay type: ADME, Microsome
[19] = biological target: T5, 5-hydroxytryptamine receptor 1A; experiment: Agonist activity at human 5-HT1A expressed in CHO cells coexpressing Galpha15 by FLIPR calcium assay; assay type: functional, cell-based
[20] = Plasma protein binding in rat assessed as unbound fraction by LC-MS/MS analysis; assay type: ADME, cell-free
[21] = Apparent permeability across apical to basolateral side in human Caco-2 cells at 2 uM by LC-MS/MS analysis; assay type: ADME, cell-based
[22] = biological target: Cytochrome P450 2C19 (Homo sapiens, UniProt P33261); experiment: Inhibition of CYP2C19 in human liver microsomes in presence of NADPH by LC-MS/MS analysis; assay type: ADME, Microsome
[23] = Plasma protein binding in human assessed as unbound fraction by LC-MS/MS analysis; assay type: ADME, cell-free
[24] = Plasma protein binding in dog assessed as unbound fraction by LC-MS/MS analysis; assay type: ADME, cell-free, Canis lupus familiaris
[25] = Inhibition of CYP2D6 in human liver microsomes in presence of NADPH by LC-MS/MS analysis; assay type: ADME, Microsome

## c1cc2c(s1)[C@@H]1CNCCN1CC2
[1]
  Emax: 95.2%

## CCc1[nH]nc(C(=O)Nc2ccc([C@H]3CNCCO3)cc2)c1C [RALMITARONT]
[2]
  EC50: 395 nM

## c1cc2c(s1)[C@H]1CNCCN1CC2
[1]
  Emax: 45.2%

## CNC[C@@H]1OCCc2ccsc21 [ULOTARONT]
[3]
  AUC(0-t) at 24 h: 17.1 µM·h
[4]
  EC50: 590 nM
[5]
  EC50: 298 µM
[6]
  ED50: 3.8 mg/kg
[2]
  EC50: 349 nM
[7]
  CLint scaled at 1 µM: < 13.5 mL/min/kg
[8]
  CLint scaled at 1 µM: < 6.8 mL/min/kg
[9]
  IC50: Not_determined
[10]
  IC50: Not_determined
[11]
  CLint scaled at 1 µM: < 29.7 mL/min/kg
[12]
  IC50: Not_determined
[13]
  Emax: 30.5%
[14]
  Activity: Active
[15]
  IC50: Not_determined
[16]
  Emax: 54%
[1]
  Emax: 87.4%
[17]
  Emax: 25.9%
[18]
  IC50: Not_determined
[19]
  EC50: 19 µM
[20]
  fraction unbound: 0.857
[21]
  Papp A→B at 2 µM: 30.1 ×10⁻⁶ cm/s
[22]
  IC50: Not_determined
[23]
  fraction unbound: 0.827
[24]
  fraction unbound: 0.833
[25]
  IC50: Not_determined

Activity calls are given as the source filed them. The rule behind the calls is not given here.
